Laboratory results published in ChEMBL document CHEMBL1144497 (Bioorg Med Chem, 2007).

Organism: Mus musculus
Assay: Bioavailability in Swiss Webster mouse relative to AUDA
Type: ADME, organism-based
Conditions: in vivo

| Ratio AUC | Structure (SMILES) |
| --- | --- |
| 1.4 | CC(C)COC(=O)CCCCCCCCCCCNC(=O)NC12CC3CC(CC(C3)C1)C2 |
| 0.6 | CCC(C)OC(=O)CCCCCCCCCCCNC(=O)NC12CC3CC(CC(C3)C1)C2 (centres undefined) |
| 1.1 | CC(C)OC(=O)CCCCCCCCCCCNC(=O)NC12CC3CC(CC(C3)C1)C2 |

| Structure (SMILES) | Ratio AUC |
| --- | --- |
| CCCCOC(=O)CCCCCCCCCCCNC(=O)NC12CC3CC(CC(C3)C1)C2 | 1.3 |
